Inhibition data for 24 molecules are collected here from PubChem BioAssay AID1822 (The Scripps Research Institute Molecular Screening Center, 2009).

For orientation: inhibition means the change of the read-out against control, counted positive when it falls.

The entries are a selection whose mix differs from that of the whole data set. Some tests of the compounds listed are not included; inactive here does not mean inactive elsewhere. The source made the active and inactive calls.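 Rule for the calls: active = inhibition above the campaign mean inhibition over all tested compounds plus 3 SD (cut at about 28% in these data); inactive = the rest.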

The test system of the assay is M18 aspartyl aminopeptidase (Plasmodium falciparum 3D7). Briefly: PfM18AAP inhibitors, malaria aminopeptidase, primary screen, biochemical, QFRET, recombinant enzyme (AID 1822).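 Note: 0% = plate median of test compound wells and 100% = 2 mM ZnCl2.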 Conditions: H-Glu-NHMec fluorogenic cleavage, at 7.35 µM, stronger effect = higher value.
With `O=C(NCC1(N2CCCCC2)CCCCC1)c1cccc(Cl)c1`, the inhibition is inactive: -4.19%. With `COc1ccc(Cl)cc1C(=O)NCC1(N(C)C)CCCCC1`, the inhibition is inactive: -12.7%. On to `COc1cccc(C(=O)NCC2(N3CCCCC3)CCCCC2)c1`, for which the inhibition is inactive: 4.32%. On to `COc1cc(C(=O)NCC2(N(C)C)CCCCC2)c([N+](=O)[O-])cc1OC`, for which the inhibition is inactive: 25%.

For the molecule `CN(C)C1(CNC(=O)c2ccc(Br)cc2)CCCCC1`, the inhibition was inactive: 1.37%. `CN(C)c1cccc(C(=O)NCC2(N(C)C)CCCCC2)c1`: the inhibition was inactive: -2.22%. Regarding `CC(C)Oc1ccc(C(=O)NCC2(N(C)C)CCCCC2)cc1`, the inhibition is inactive: -18.3%. Take `COc1ccc(Br)c(C(=O)NCC2(N3CCCCC3)CCCCC2)c1`: the inhibition is inactive: -9.44%. As to `O=C(OC1CN2CCC1CC2)C(CO)(c1ccccc1)c1ccccc1` (centres undefined), the inhibition is inactive: -1.2%. As for `Cc1ccc(C(=O)NCC2(N3CCCCC3)CCCCC2)cc1`, the inhibition is inactive: 4.69%. `CC(C)N1C(=O)CC2(CCN(CCOC(=O)C(O)(c3ccccc3)c3ccccc3)CC2)C1=O`: the inhibition was inactive: -8.58%.

Turning to `COc1cc(SC)ccc1C(=O)NCC1(N(C)C)CCCCC1`, the inhibition was inactive: -8.13%.

Consider `CCN(CC)CC(C)C(C)OC(=O)C(O)(c1ccccc1)c1ccccc1` (centres undefined), for which the inhibition was inactive: -3.21%. As to `CN1[C@@H]2CC[C@H]1CC(OC(=O)C(O)(c1ccccc1)c1ccccc1)C2` (some centres undefined), the inhibition is inactive: -6.21%.

Regarding `O=C(NCC1(N2CCCCC2)CCCCC1)c1cc([N+](=O)[O-])ccc1Cl`, the inhibition is inactive: -5.35%. For `O=C(NCC1(N2CCCCC2)CCCCC1)c1cccc(Br)c1`, the inhibition was inactive: 2.65%. Under `CCN1CCCC(OC(=O)C2(O)c3ccccc3C=Cc3ccccc32)C1` (centres undefined) stands inactive: -6.1%; under `Cc1cc(C(=O)NCC2(N3CCCCC3)CCCCC2)ccc1[N+](=O)[O-]`, inactive: -0.94%; under `COc1ccc(C(=O)NCC2(N(C)C)CCCCC2)cc1`, inactive: -11.7%. `O=C(NCC1(N2CCCCC2)CCCCC1)c1cc(F)c(F)cc1Cl`: the inhibition was inactive: 4.12%. As for `C=CCN1CCN(CCOC(=O)C(O)(c2ccccc2)c2ccccc2)CC1`, the inhibition was inactive: -3.38%. Turning to `CN(C)c1ccc(C(=O)NCC2(N(C)C)CCCCC2)cc1`, the inhibition is inactive: 6.29%. Under `CN(C)C1CCCC1OC(=O)C(O)(c1ccccc1)c1ccccc1` (centres undefined) stands inactive: 1.46%; under `Cc1ccccc1C(=O)NCC1(N2CCCCC2)CCCCC1`, inactive: -5.79%.
